The format of this data set is physicochemical. The following applies: perfusion medium recirculated 4 hours at 37°C in absence of placenta.

Consider [^3H]-bupropion, for which the “chemical stability / radioactive damage” value is on record as “chemically stable”.

Source of the values: paper PMC2873069 (The journal of maternal-fetal & neonatal medicine : the …, 2010).
